The chains behind the UniProt entries cited, without tags or fusion partners.
UniProt P31391, whole entry, species assumed: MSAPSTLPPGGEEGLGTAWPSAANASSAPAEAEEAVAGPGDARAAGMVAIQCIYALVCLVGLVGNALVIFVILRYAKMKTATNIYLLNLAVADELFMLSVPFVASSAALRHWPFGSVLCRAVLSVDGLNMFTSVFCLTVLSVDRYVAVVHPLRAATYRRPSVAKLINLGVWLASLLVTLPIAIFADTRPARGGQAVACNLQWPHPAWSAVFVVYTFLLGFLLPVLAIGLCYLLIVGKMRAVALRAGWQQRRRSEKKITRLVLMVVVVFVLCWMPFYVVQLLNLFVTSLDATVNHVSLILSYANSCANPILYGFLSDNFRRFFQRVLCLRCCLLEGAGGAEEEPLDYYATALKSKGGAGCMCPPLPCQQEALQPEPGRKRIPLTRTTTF
UniProt P30872, whole entry, species assumed: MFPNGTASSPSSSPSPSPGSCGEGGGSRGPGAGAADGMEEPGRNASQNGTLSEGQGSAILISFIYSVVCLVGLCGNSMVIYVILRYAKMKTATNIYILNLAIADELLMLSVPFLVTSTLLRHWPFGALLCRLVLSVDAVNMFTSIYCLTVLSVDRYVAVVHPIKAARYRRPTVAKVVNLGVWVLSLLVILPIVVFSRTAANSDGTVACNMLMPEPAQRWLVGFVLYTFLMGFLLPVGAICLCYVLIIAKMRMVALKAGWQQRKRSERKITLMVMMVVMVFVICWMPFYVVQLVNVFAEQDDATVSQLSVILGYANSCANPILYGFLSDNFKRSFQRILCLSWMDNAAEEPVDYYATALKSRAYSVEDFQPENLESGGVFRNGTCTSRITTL

According to patent US8101373B2, “β-galactosidase donor fragments” (Discoverx Corporation, priority 2007, dated 2012):

Columns and labels:
SSTR4 = target: T1, SSTR4 (Homo sapiens, UniProt P31391); assay: PathHunter β-arrestin2-EA / GPCR-ED enzyme fragment complementation, SSTR4-ED fusion; assay type: cell-based; details: saturating ligand
T1 construct: The entire GPCR coding regions were cloned downstream of the CMV promoter and upstream of the ED; expressed in transfected cells; host or cells: HEK293 or CHOK1 cells, retroviral infection (pLNCX2)
Source text: (§1) The following are the directions for performing the determinations of the response to inducing agents and comparing the prior art ED (pK1) to an ED of the subject invention (pK2):
(§2) The cells used were HEK293 and CHOK1 cells. Following substantially the procedures described in U.S. patent application Ser. No. 10/229,247, filed Aug. 27, 2002, and U.S. patent application Ser. No. 11/132,764 (Publication no. 2005/0287522), filed May 18, 2005, whose disclosures are specifically incorporated by reference, each of the cell lines was infected with retroviral constructs. The viral plasmid was the PLNCX2 vector from Clontech. The plasmid includes sufficient retroviral sequences to enable viral production in the appropriate packaging cell lines. The plasmid also includes the neomycin antibiotic resistance gene and a CMV promoter that is used to drive expression of the target ED fusion. […] The ED is fused at the intracellular terminus, i.e., C-terminus of the proteins.
(§3) Preparation of Detection Reagents—The detection reagents must be prepared as a working solution prior to use, and once prepared are stable for at least 24 hours at room temperature with no impact on assay performance. The detection reagents consist of the substrate and co-factors for chemiluminescence signal detection, as well as the reagents necessary for selective cell permeabilization. Working solution is prepared by combining PathHunter™ Cell Assay Buffer (DiscoveRx, Inc., Fremont, Calif.), Galacton Star® and Emerald II® reagent […]. reagents (ABI, Bedford, Mass.) at a ratio of 19:1:5. Sufficient reagent is provided in each kit to perform the indicated number of assays in a 384-well, full-volume microplate assuming an addition of 12 μl of detection reagent per well or in a 96-well, full-volume microplate assuming an addition of 50 μl of detection reagent per well.
(§4) The table below outlines the procedure for using the PathHunter™ Detection Kit to monitor protein translocation in a either a parental PathHunter cell line transfected with a target protein of interest, or one of the dedicated PathHunter cell lines available from DiscoveRx for monitoring specific protein translocation events (i.e., glucocorticoid receptor).
(§5) The first column indicates the receptor. The second column indicates whether PK1 or PK2 was employed as the ED fusion partner. The basal activity indicates the signal in the absence of stimulation. The fourth column indicates the fold induction for each of the constructs, where saturating conditions of the ligand were employed. The fifth column indicates the ligand that was employed.

SSTR1 = target: T2, SSTR1 (Homo sapiens, UniProt P30872); assay: PathHunter β-arrestin2-EA / GPCR-ED enzyme fragment complementation, SSTR1-ED fusion; assay type: cell-based; details: saturating ligand
T2 construct: The entire GPCR coding regions were cloned downstream of the CMV promoter and upstream of the ED; expressed in transfected cells; host or cells: HEK293 or CHOK1 cells, retroviral infection (pLNCX2)
Source text: as §1, §2, §3, §4, §5

Somatostatin-14
Fold induct. (SSTR4; SSTR4 fused to PK1 ED): 1.5 fold
Fold induct. (SSTR4; SSTR4 fused to PK2 ED): 1.6 fold
Fold induct. (SSTR1; SSTR1 fused to PK1 ED): 1 fold
Fold induct. (SSTR1; SSTR1 fused to PK2 ED): 1.5 fold

[TYR1] Somatostatin 14 [TYR-SRIF14]
Fold induct. (SSTR1; SSTR1 fused to PK1 ED): 1 fold
Fold induct. (SSTR1; SSTR1 fused to PK2 ED): 2.2 fold

Somatostatin-28
Fold induct. (SSTR4; SSTR4 fused to PK1 ED): 1.3 fold
Fold induct. (SSTR4; SSTR4 fused to PK2 ED): 1.6 fold
Fold induct. (SSTR1; SSTR1 fused to PK1 ED): 1.2 fold
Fold induct. (SSTR1; SSTR1 fused to PK2 ED): 1.3 fold
